# Measured values taken from ChEMBL document CHEMBL5365401, “Discovery of 5-((1H-indazol-3-yl) methylene)-2-thioxoimidazolidin-4-one derivatives as a new class of AHR agonists with anti-psoriasis activity in a mouse model” (Bioorg Med Chem Lett, 2023).
# Tested on: Mus musculus
# Test: Anti-psoriatic activity in imiquimod-induced BALB/c mouse model assessed as decrease in psoriasis-like skin lesion at 1 % administered topically
# Assay type: functional, organism-based
# Conditions: Zone of skin, route top
smiles,measurement,value
CC(C)c1c(O)cc(/C=C/c2ccccc2)cc1O,Activity,Active

# The source made the active and inactive calls. The rule behind the calls is not given here.
